Measurements from ChEMBL document CHEMBL5543074, “Synthesis, antioxidant and neuroprotective analysis of diversely functionalized α-aryl-N-alkyl nitrones as potential agents for ischemic stroke therapy” (Eur J Med Chem, 2024).

Test: Antioxidant activity assessed as interaction reducing activity with DPPH at 50 uM measured after 20 mins by absorbance based assay
Format: functional
Set-up: scale not given: the % may be the effect or the level left

CC(Cc1ccc(O)c(O)c1)C(C)Cc1ccc(O)c(O)c1 (stereo unspecified) [NORDIHYDROGUAIARETIC ACID] showed an Activity of 81%.
